This is an account of results in patent US9896436B2, “Histone demethylase inhibitors” (Celgene Quanticel Research, Inc., priority 2014, dated 2018).

Chains of the proteins cited; added tags and fusions are not shown. Residues count along the entry.
UniProt Q8NHM5, 1-650: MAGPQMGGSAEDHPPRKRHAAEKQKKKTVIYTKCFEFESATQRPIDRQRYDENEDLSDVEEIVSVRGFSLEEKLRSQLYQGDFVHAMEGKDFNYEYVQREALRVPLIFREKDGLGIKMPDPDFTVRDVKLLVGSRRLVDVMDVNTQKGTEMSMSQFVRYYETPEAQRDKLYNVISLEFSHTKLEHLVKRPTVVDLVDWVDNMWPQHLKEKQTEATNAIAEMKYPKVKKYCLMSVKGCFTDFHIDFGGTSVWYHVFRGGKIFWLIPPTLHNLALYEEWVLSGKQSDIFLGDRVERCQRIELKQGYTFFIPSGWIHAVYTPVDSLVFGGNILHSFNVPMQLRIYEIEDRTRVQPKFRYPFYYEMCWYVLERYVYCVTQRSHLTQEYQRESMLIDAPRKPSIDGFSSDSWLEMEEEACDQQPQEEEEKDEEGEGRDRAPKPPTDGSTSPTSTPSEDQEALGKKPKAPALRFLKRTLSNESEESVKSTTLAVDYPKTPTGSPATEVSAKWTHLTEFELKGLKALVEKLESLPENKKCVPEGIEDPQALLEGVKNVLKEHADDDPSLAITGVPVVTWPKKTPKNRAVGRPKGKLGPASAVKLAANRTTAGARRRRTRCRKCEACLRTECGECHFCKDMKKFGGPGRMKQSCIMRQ

This test has as its target FBXL10 (Homo sapiens (Human), UniProt Q8NHM5). Put plainly: FBXL10 in vitro enzyme inhibition assay (AlphaScreen). It is filed as biochemical. Conditions: Table 5. The method, then:
This assay determines the ability of a test compound to inhibit FBXL11, FBXL10, and PHF8 demethylase activity. […] Baculovirus expressed FBXL10 (GenBank Accession #NM_032590, AA 1-650) was purchased from BPS Bioscience (Cat #50120). Baculovirus expressed PHF8 (GenBank Accession NP_055922.1) was purchased from Active Motif (Cat#31435).
The ability of test compounds to inhibit the activity of FBXL10 was determined in 384-well plate format under the following reaction conditions: 0.3 nM FBXL10, 30 nM H3K36me2-biotin labeled peptide (Anaspec cat #64442), 0.2 μM alpha-ketoglutaric acid in assay buffer of 50 mM HEPES, pH7.3, 0.005% Brij35, 0.5 mM TCEP, 0.2 mg/ml BSA, 50 μM sodium L-ascorbate, 5 μM ammonium iron(II) sulfate. Reaction product is determined quantitatively by AlphaScreen detection after the addition of detection reagents anti-H3K36me1 antibody, AlphaScreen® Streptavidin-coated Donor beads, and AlphaScreen® Protein A Acceptor beads in 50 mM HEPES, pH7.3, 10 mM NaCl, 0.005% Brij35, 5 mM EDTA, 2 mg/ml BSA to final 10 μg/ml beads.
The assay reaction was initiated by the following: 3 μl of the mixture of 90 nM H3K36me2-biotin labeled peptide and 0.6 μM alpha-ketoglutaric acid with 3 μl of 11-point serial diluted inhibitor in 3% DMSO are added to each well of 384 well Proxiplate (Perkin Elmer), followed by the addition of 3 μl of 0.9 nM FBXL10 to initiate the reaction. […]
(Alpha assays give light when donor and acceptor beads are brought close together.)

For the substance “2-{1-[(6-fluoro-1,2,3,4- tetrahydronaphthalen-1-yl)methyl]-1H- imidazol-4-yl}-4-[5-(trifluoromethyl)-1H 1,2,3-triazol-4-yl]pyridine [Example 100]”, the half-inhibitory concentration (IC50) is 100 to 1000 nM.

As a reminder, the IC50 is the concentration that gives 50% inhibition. High values mean weaker potency in that assay, low ones greater potency in that assay.
